The text below walks through data of patent US20050130197A1 (published 2005).

Sequences of proteins named here, by UniProt entry; tags and fusion partners are left off. A change or cut given only in a name is not applied to a line headed by its entry.
UniProt Q9Y5X5: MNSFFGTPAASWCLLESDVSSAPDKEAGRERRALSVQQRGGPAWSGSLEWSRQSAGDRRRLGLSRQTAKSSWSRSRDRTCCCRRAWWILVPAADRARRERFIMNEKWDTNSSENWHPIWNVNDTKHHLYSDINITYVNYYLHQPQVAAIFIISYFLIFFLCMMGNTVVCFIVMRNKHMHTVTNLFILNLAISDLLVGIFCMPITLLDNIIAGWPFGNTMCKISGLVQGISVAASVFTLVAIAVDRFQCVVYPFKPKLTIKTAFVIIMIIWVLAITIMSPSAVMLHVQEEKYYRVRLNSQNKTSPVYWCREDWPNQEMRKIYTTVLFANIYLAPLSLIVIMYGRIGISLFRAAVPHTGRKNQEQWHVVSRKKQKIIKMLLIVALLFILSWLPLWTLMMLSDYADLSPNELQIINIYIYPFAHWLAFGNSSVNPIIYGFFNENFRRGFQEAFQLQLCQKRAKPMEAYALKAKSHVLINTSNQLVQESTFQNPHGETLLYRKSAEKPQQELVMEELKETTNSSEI

For experiment [1], the target named is T1, human NPFF2 receptor (Homo sapiens, UniProt Q9Y5X5). As to conditions: read-out: [125I]Ligand Filtration Human Ki (c); data from Eur. J. Pharmacol. 451: 245-256 (2002); cited from earlier work.
Experiment [2] has as its target T1, human NPFF2 receptor. Put plainly: Fluorescence polarization (FP) competition binding assay, TAMRA-NPFF tracer, 0.1% Pluronic F-127.

Molecules are shown by their SMILES. Where two headings read alike, the source gives them in different places.

Consider `N=C(N)NCCC[C@H](NC(=O)[C@H](CCC(N)=O)NC(=O)[C@@H]1CCCN1)C(=O)N[C@@H](Cc1ccccc1)C(N)=O` [PQRFamide], for which the Ki in experiment [1] was 0.0068 ± 0.0012 µM; in experiment [2], 0.0132 ± 0.0001 µM. Besides, in experiment [2] (FP displacement curves), the “Ki for inhibiting TAMRA-NPFF binding (in words)” value is “nanomolar range”.
